Read-outs that look alike come from different tables or passages of the source.
System: PSMA^+ PC3 PIP and PSMA^− PC3 flu tumors

`O=C(O)CC[C@H](NC(=O)N[C@@H](CCCCNC(=O)CCCCCCC(=O)N[C@@H](CCCCNC(=O)CCc1cn(CC[18F])nn1)C(=O)O)C(=O)O)C(=O)O` [[^18F]YC-71] was tested, and the “Biodistribution, PSMA+ PC3 PIP tumor uptake” value (30 min post-injection) was 38.35±3.06 % ID/g, the “Biodistribution, PSMA− PC3 flu tumor uptake” value (30 min post-injection) was 0.53 ± 0.13 % ID/g and the “Biodistribution, bladder (empty)” value (30 min post-injection) was 11.68 ± 3.49 % ID/g. For the same compound, the “Biodistribution, blood” value (30 min post-injection) was 0.84 ± 0.15 % ID/g, the “Biodistribution, bone” value (30 min post-injection) was 0.33 ± 0.15 % ID/g and the “Biodistribution, fat” value (30 min post-injection) was 0.42 ± 0.07 % ID/g. For the same compound, the “Biodistribution, heart” value (30 min post-injection) was 0.35 ± 0.07 % ID/g, the “Biodistribution, kidney” value (30 min post-injection) was 70.86 ± 7.48 % ID/g and the “Biodistribution, large intestine” value (30 min post-injection) was 0.65 ± 0.16 % ID/g. The “Biodistribution, liver” value (30 min post-injection) was 18.89 ± 1.36 % ID/g, the “Biodistribution, lung” value (30 min post-injection) was 1.55 ± 0.25 % ID/g and the “Biodistribution, muscle” value (30 min post-injection) was 0.24 ± 0.05 % ID/g. The “Biodistribution, pancreas” value (30 min post-injection) was 0.62 ± 0.09 % ID/g, the “Biodistribution, small intestine” value (30 min post-injection) was 0.38 ± 0.06 % ID/g and the “Biodistribution, spleen” value (30 min post-injection) was 4.92 ± 0.54 % ID/g. For the same compound, the “Biodistribution, stomach” value (30 min post-injection) was 0.52 ± 0.09 % ID/g, the PIP/flu uptake ratio (30 min post-injection) was 72 and the “Biodistribution, PSMA+ PC3 PIP tumor uptake” value (60 min post-injection) was 41.66±8.16 % ID/g. The “Biodistribution, PSMA− PC3 flu tumor uptake” value (60 min post-injection) was 0.28 ± 0.02 % ID/g, the “Biodistribution, bladder (empty)” value (60 min post-injection) was 1.59 ± 1.09 % ID/g and the “Biodistribution, blood” value (60 min post-injection) was 0.24 ± 0.02 % ID/g. For the same compound, the “Biodistribution, bone” value (60 min post-injection) was 0.15 ± 0.01 % ID/g, the “Biodistribution, fat” value (60 min post-injection) was 0.32 ± 0.07 % ID/g and the “Biodistribution, heart” value (60 min post-injection) was 0.17 ± 0.04 % ID/g. For the same compound, the “Biodistribution, kidney” value (60 min post-injection) was 70.63 ± 19.18 % ID/g, the “Biodistribution, large intestine” value (60 min post-injection) was 0.27 ± 0.03 % ID/g and the “Biodistribution, liver” value (60 min post-injection) was 21.52 ± 3.82 % ID/g. The “Biodistribution, lung” value (60 min post-injection) was 0.82 ± 0.16 % ID/g, the “Biodistribution, muscle” value (60 min post-injection) was 0.09 ± 0.00 % ID/g and the “Biodistribution, pancreas” value (60 min post-injection) was 0.33 ± 0.09 % ID/g. The “Biodistribution, small intestine” value (60 min post-injection) was 0.20 ± 0.09 % ID/g, the “Biodistribution, spleen” value (60 min post-injection) was 3.54 ± 0.89 % ID/g and the “Biodistribution, stomach” value (60 min post-injection) was 0.32 ± 0.08 % ID/g. For the same compound, the PIP/flu uptake ratio (60 min post-injection) was 146, the “Biodistribution, PSMA+ PC3 PIP tumor uptake” value (120 min post-injection) was 39.81±3.65 % ID/g and the “Biodistribution, PSMA− PC3 flu tumor uptake” value (120 min post-injection) was 0.12 ± 0.03 % ID/g. The “Biodistribution, bladder (empty)” value (120 min post-injection) was 6.34 ± 6.91 % ID/g, the “Biodistribution, blood” value (120 min post-injection) was 0.08 ± 0.01 % ID/g and the “Biodistribution, bone” value (120 min post-injection) was 0.07 ± 0.02 % ID/g. The “Biodistribution, heart” value (120 min post-injection) was 0.07 ± 0.01 % ID/g, the “Biodistribution, kidney” value (120 min post-injection) was 34.35 ± 6.99 % ID/g and the “Biodistribution, large intestine” value (120 min post-injection) was 0.12 ± 0.06 % ID/g. For the same compound, the “Biodistribution, liver” value (120 min post-injection) was 19.75 ± 0.93 % ID/g, the “Biodistribution, lung” value (120 min post-injection) was 0.31 ± 0.03 % ID/g and the “Biodistribution, muscle” value (120 min post-injection) was 0.04 ± 0.01 % ID/g. The “Biodistribution, pancreas” value (120 min post-injection) was 0.17 ± 0.06 % ID/g, the “Biodistribution, small intestine” value (120 min post-injection) was 0.21 ± 0.04 % ID/g and the “Biodistribution, spleen” value (120 min post-injection) was 0.91 ± 0.53 % ID/g. The “Biodistribution, stomach” value (120 min post-injection) was 0.13 ± 0.06 % ID/g, the PIP/flu uptake ratio (120 min post-injection) was 323 and the “PSMA− PC3 flu tumor uptake (in words)” value (all time points) was “low”.
For `O=C(O)CCC(NC(=O)NC(CCCCNC(=O)c1ccc([18F])nc1)C(=O)O)C(=O)O` (stereo not drawn) [[^18F]DCFPyL, 2-(3-{1-carboxy-5-[(6-[^18F]fluoropyridine-3-carbonyl)-amino]-pentyl}-ureido)-pentanedioic acid, reference compound], the “Biodistribution, bladder (empty)” value (30 min post-injection) was 20.28 ± 12.32 % ID/g, the “Biodistribution, bone” value (30 min post-injection) was 1.00 ± 0.51 % ID/g and the “Biodistribution, kidney” value (30 min post-injection) was 123.69±8.05 % ID/g. For the same compound, the “Biodistribution, lung” value (30 min post-injection) was 3.00 ± 0.34 % ID/g, the “Biodistribution, pancreas” value (30 min post-injection) was 1.07 ± 0.12 % ID/g and the “Biodistribution, stomach” value (30 min post-injection) was 0.90 ± 0.14 % ID/g. For the same compound, the “Biodistribution, bladder (empty)” value (60 min post-injection) was 11.60 ± 5.41 % ID/g, the “Biodistribution, kidney” value (60 min post-injection) was 128.13 ± 15.02 % ID/g and the “Biodistribution, stomach” value (60 min post-injection) was 0.50 ± 0.10 % ID/g. The “Biodistribution, large intestine” value (120 min post-injection) was 0.52 ± 0.35 % ID/g, the “Biodistribution, muscle” value (120 min post-injection) was 0.08 ± 0.02 % ID/g and the “Biodistribution, fat” value (240 min post-injection) was 0.10 ± 0.05 % ID/g. For the same compound, the “Biodistribution, heart” value (240 min post-injection) was 0.06 ± 0.01 % ID/g, the “Biodistribution, muscle” value (240 min post-injection) was 0.07 ± 0.04 % ID/g and the “Biodistribution, pancreas” value (240 min post-injection) was 0.09 ± 0.02 % ID/g. For the same compound, the “Biodistribution, stomach” value (240 min post-injection) was 0.09 ± 0.03 % ID/g.
With `O=C(O)CC[C@H](NC(=O)N[C@@H](CCCCNC(=O)CCc1cn(CC[18F])nn1)C(=O)O)C(=O)O` [[^18F]YC-88, 2-[3-(1-carboxy-5-{3-[1-(2-[^18F]fluoroethyl)-1H-1,2,3-triazol-yl]propanamido}pentyl)ureido]-pentanedioic acid] the “Salivary gland uptake compared to [^18F]DCFPyL (in words)” value (30 min and 1 h post-injection) was “significantly less”, the “Biodistribution, bone” value (30 min post-injection) was 0.40 ± 0.16 % ID/g and the PIP/flu uptake ratio (30 min post-injection) was 70. The “PIP/kidney (tumor-to-kidney) uptake ratio” value (30 min post-injection) was 0.9, the “Biodistribution, heart” value (120 min post-injection) was 0.07 ± 0.02 % ID/g and the “Biodistribution, muscle” value (120 min post-injection) was 0.10 ± 0.03 % ID/g. The “PIP/kidney (tumor-to-kidney) uptake ratio” value (120 min post-injection) was 4, the “Biodistribution, PSMA− PC3 flu tumor uptake” value (240 min post-injection) was 0.07 ± 0.01 % ID/g and the “Biodistribution, fat” value (240 min post-injection) was 0.10 ± 0.04 % ID/g. For the same compound, the “Biodistribution, heart” value (240 min post-injection) was 0.04 ± 0.01 % ID/g, the “Biodistribution, muscle” value (240 min post-injection) was 0.06 ± 0.03 % ID/g and the “Biodistribution, pancreas” value (240 min post-injection) was 0.07 ± 0.02 % ID/g. For the same compound, the “Biodistribution, stomach” value (240 min post-injection) was 0.06 ± 0.02 % ID/g, the Bone uptake (all time points) was less than 1 % ID/g and the “Kidney, liver and spleen uptake compared to [^18F]DCFPyL (in words)” value (all time points) was “significantly lower”. The “PSMA− PC3 flu tumor uptake (in words)” value (all time points) was “low” and the “Nontarget tissue uptake (in words)” value (at or after 30 min post-injection) was “minimal nontarget tissue uptake”.

— patent US11078166B2, “Triazole conjugated ureas, thioureas, carbamates, and reversed carbamates for PSMA-targeted imaging agents and uses thereof” (THE JOHNS HOPKINS UNIVERSITY, priority 2015, dated 2021)
